# Test results as given in patent US20230321246A1, “HIGH-STRENGTH ORAL TAXANE COMPOSITIONS AND METHODS” (ATHENEX HK INNOVATIVE LIMITED, priority 2017, published 2023).
# Experiment: in vivo
# Conditions: male, Beagle, dog, iv, 2 mg/kg
compound,measurement,value
"CC(=O)O[C@H]1C(=O)[C@@]2(C)[C@H]([C@H](OC(=O)c3ccccc3)[C@]3(O)C[C@H](OC(=O)[C@H](O)[C@@H](NC(=O)c4ccccc4)c4ccccc4)C(C)=C1C3(C)C)[C@]1(OC(C)=O)CO[C@@H]1C[C@@H]2O [Paclitaxel, paclitaxel]",half-life,8.7 h
